Laboratory results from patent US20230014151A1, “COMBINATION ANTIVIRAL THERAPY FOR MEASLES” (The Trustees of Columbia University in the City of New York, priority 2019, published 2023).
Read-outs that look alike come from different tables or passages of the source.

Amino acid sequences for entries named in this document (tags omitted). Residues count along the entry.
UniProt Q786F3, 113-550: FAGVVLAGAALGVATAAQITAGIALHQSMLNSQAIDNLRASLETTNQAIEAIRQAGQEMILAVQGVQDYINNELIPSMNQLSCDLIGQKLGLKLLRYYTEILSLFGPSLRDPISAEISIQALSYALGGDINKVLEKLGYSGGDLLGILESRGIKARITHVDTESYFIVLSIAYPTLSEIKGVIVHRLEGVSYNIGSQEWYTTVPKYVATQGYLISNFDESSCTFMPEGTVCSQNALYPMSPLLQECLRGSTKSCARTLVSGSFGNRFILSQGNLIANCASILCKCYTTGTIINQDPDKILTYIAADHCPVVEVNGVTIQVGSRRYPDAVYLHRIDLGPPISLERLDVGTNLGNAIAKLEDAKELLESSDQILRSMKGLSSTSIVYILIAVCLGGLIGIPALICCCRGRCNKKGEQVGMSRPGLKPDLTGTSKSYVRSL
UniProt Q786F3, 24-112: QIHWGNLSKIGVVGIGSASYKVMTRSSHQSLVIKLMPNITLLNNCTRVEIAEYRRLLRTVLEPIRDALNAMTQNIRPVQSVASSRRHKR

What was measured:
[1] = tested on: viral glycoproteins (H and F); CD150; test: beta-galactosidase complementation-based fusion assay, CD150 target cells; details: for IC90: read-out: CD150 IC90
[2] = target: viral glycoproteins (H and F); Nectin-4 (Measles virus, UniProt Q786F3); test: beta-galactosidase complementation-based fusion assay, Nectin-4 target cells
[3] = IC50, Table 2 (salient peptides), Nectin-4 target cells
[4] = Nectin4 IC50, Table 3 (extended version)

| Compound | IC90 [1] | IC90 ([2]; read-out: Nectin4 IC90) | IC50 [1] | IC90 [2] | IC50 [2, 3] | IC50 [2, 4] |
| --- | --- | --- | --- | --- | --- | --- |
| CC[C@H](C)[C@H](NC(=O)[C@H](C)NC(=O)[C@H](CC(N)=O)NC(=O)CNC(=O)[C@H](CC(C)C)NC(=O)[C@H](CC(N)=O)NC(=O)[C@@H](NC(=O)CNC(=O)[C@@H](NC(=O)[C@H](CC(=O)O)NC(=O)[C@H](CC(C)C)NC(=O)[C@H](CCCNC(=N)N)NC(=O)[C@H](CCC(=O)O)NC(=O)[C@H](CC(C)C)NC(=O)[C@H](CO)NC(=O)[C@@H](NC(=O)[C@@H]1CCCN1C(=O)[C@@H]1CCCN1C(=O)CNC(=O)[C@H](CO)NC(=O)CNC(=O)[C@H](CO)NC(=O)CNC(=O)CNC(=O)[C@H](Cc1ccccc1)NC(=O)[C@@H](Cc1ccccc1)NC(=O)OCc1ccccc1)[C@@H](C)CC)C(C)C)[C@@H](C)O)C(=O)N[C@@H](C)C(=O)N[C@@H](CCCCN)C(=O)N[C@@H](CC(C)C)C(=O)N[C@@H](CCC(=O)O)C(=O)N[C@@H](CC(=O)O)C(=O)N[C@@H](C)C(=O)N[C@@H](CCCCN)C(=O)N[C@@H](CCC(=O)O)C(=O)N[C@@H](CC(C)C)C(=O)N[C@@H](CC(C)C)C(=O)N[C@@H](CCC(=O)O)C(=O)N[C@@H](CO)C(=O)N[C@@H](CO)C(=O)N[C@@H](CC(=O)O)C(=O)N[C@@H](CCC(N)=O)C(=O)N[C@H](C(=O)N[C@@H](CC(C)C)C(=O)N[C@@H](CCCNC(=N)N)C(=O)NCC(=O)N[C@@H](CO)C(=O)NCC(=O)N[C@@H](CO)C(=O)NCC(=O)N[C@@H](CSC1CC(=O)N(CC)C1=O)C(=O)O)[C@@H](C)CC (stereo partly shown) [Monomer N-Maleimide FIP-HRC450-485] | > 1000 nM | > 1000 nM | – | – | – | – |
| CC[C@H](C)[C@H](NC(=O)[C@H](C)NC(=O)[C@H](CC(N)=O)NC(=O)CNC(=O)[C@H](CC(C)C)NC(=O)[C@H](CC(N)=O)NC(=O)[C@@H](NC(=O)CNC(=O)[C@@H](NC(=O)[C@H](CC(=O)O)NC(=O)[C@H](CC(C)C)NC(=O)[C@H](CCCNC(=N)N)NC(=O)[C@H](CCC(=O)O)NC(=O)[C@H](CC(C)C)NC(=O)[C@H](CO)NC(=O)[C@@H](NC(=O)[C@@H]1CCCN1C(=O)[C@@H]1CCCN1C(=O)CNC(=O)[C@H](CO)NC(=O)CNC(=O)[C@H](CO)NC(=O)CNC(=O)CNC(=O)[C@H](Cc1ccccc1)NC(=O)[C@@H](Cc1ccccc1)NC(=O)OCc1ccccc1)[C@@H](C)CC)C(C)C)[C@@H](C)O)C(=O)N[C@@H](C)C(=O)N[C@@H](CCCCN)C(=O)N[C@@H](CC(C)C)C(=O)N[C@@H](CCC(=O)O)C(=O)N[C@@H](CC(=O)O)C(=O)N[C@@H](C)C(=O)N[C@@H](CCCCN)C(=O)N[C@@H](CCC(=O)O)C(=O)N[C@@H](CC(C)C)C(=O)N[C@@H](CC(C)C)C(=O)N[C@@H](CCC(=O)O)C(=O)N[C@@H](CO)C(=O)N[C@@H](CO)C(=O)N[C@@H](CC(=O)O)C(=O)N[C@@H](CCC(N)=O)C(=O)N[C@H](C(=O)N[C@@H](CC(C)C)C(=O)N[C@@H](CCCNC(=N)N)C(=O)NCC(=O)N[C@@H](CO)C(=O)NCC(=O)N[C@@H](CO)C(=O)NCC(=O)N[C@@H](CSCC(=O)NCCOCCOCCOCCOCCOCCOCCOCCOCCOCCOCCOCCOCCOCCOCCOCCOCCOCCOCCOCCOCCOCCOCCOCCOCCC(=O)O[C@H]1CC[C@@]2(C)C(=CC[C@H]3[C@@H]4CC[C@H]([C@H](C)CCCC(C)C)[C@@]4(C)CC[C@@H]32)C1)C(=O)O)[C@@H](C)CC [peg24 chol [FIP-HRC450-485]] | > 900 nM | 886 ± 103 nM | – | – | – | – |
| CC[C@H](C)[C@H](NC(=O)[C@H](C)NC(=O)[C@H](CC(N)=O)NC(=O)CNC(=O)[C@H](CC(C)C)NC(=O)[C@H](CC(N)=O)NC(=O)[C@@H](NC(=O)CNC(=O)[C@@H](NC(=O)[C@H](CC(=O)O)NC(=O)[C@H](CC(C)C)NC(=O)[C@H](CCCNC(=N)N)NC(=O)[C@H](CCC(=O)O)NC(=O)[C@H](CC(C)C)NC(=O)[C@H](CO)NC(=O)[C@@H](NC(=O)[C@@H]1CCCN1C(=O)[C@@H]1CCCN1C(=O)CNC(=O)[C@H](CO)NC(=O)CNC(=O)[C@H](CO)NC(=O)CNC(=O)CNC(=O)[C@H](Cc1ccccc1)NC(=O)[C@@H](Cc1ccccc1)NC(=O)OCc1ccccc1)[C@@H](C)CC)C(C)C)[C@@H](C)O)C(=O)N[C@@H](C)C(=O)N[C@@H](CCCCN)C(=O)N[C@@H](CC(C)C)C(=O)N[C@@H](CCC(=O)O)C(=O)N[C@@H](CC(=O)O)C(=O)N[C@@H](C)C(=O)N[C@@H](CCCCN)C(=O)N[C@@H](CCC(=O)O)C(=O)N[C@@H](CC(C)C)C(=O)N[C@@H](CC(C)C)C(=O)N[C@@H](CCC(=O)O)C(=O)N[C@@H](CO)C(=O)N[C@@H](CO)C(=O)N[C@@H](CC(=O)O)C(=O)N[C@@H](CCC(N)=O)C(=O)N[C@H](C(=O)N[C@@H](CC(C)C)C(=O)N[C@@H](CCCNC(=N)N)C(=O)NCC(=O)N[C@@H](CO)C(=O)NCC(=O)N[C@@H](CO)C(=O)NCC(=O)N[C@@H](CSCC(=O)O[C@H]1CC[C@@]2(C)C(=CC[C@H]3[C@@H]4CC[C@H]([C@H](C)CCCC(C)C)[C@@]4(C)CC[C@@H]32)C1)C(=O)O)[C@@H](C)CC [FIP-HRC450-485-chol] | 845 ± 26.9 nM | 446 ± 369 nM | 185 ± 46 nM | 614 ± 245 nM | 214 ± 148 nM | 251 ± 191 nM |
| CC[C@H](C)[C@H](NC(=O)[C@H](C)NC(=O)[C@H](CC(N)=O)NC(=O)CNC(=O)[C@H](CC(C)C)NC(=O)[C@H](CC(N)=O)NC(=O)[C@@H](NC(=O)CNC(=O)[C@@H](NC(=O)[C@H](CC(=O)O)NC(=O)[C@H](CC(C)C)NC(=O)[C@H](CCCNC(=N)N)NC(=O)[C@H](CCC(=O)O)NC(=O)[C@H](CC(C)C)NC(=O)[C@H](CO)NC(=O)[C@@H](NC(=O)[C@@H]1CCCN1C(=O)[C@@H]1CCCN1C(=O)CNC(=O)[C@H](CO)NC(=O)CNC(=O)[C@H](CO)NC(=O)CNC(=O)CNC(=O)[C@H](Cc1ccccc1)NC(=O)[C@@H](Cc1ccccc1)NC(=O)OCc1ccccc1)[C@@H](C)CC)C(C)C)[C@@H](C)O)C(=O)N[C@@H](C)C(=O)N[C@@H](CCCCN)C(=O)N[C@@H](CC(C)C)C(=O)N[C@@H](CCC(=O)O)C(=O)N[C@@H](CC(=O)O)C(=O)N[C@@H](C)C(=O)N[C@@H](CCCCN)C(=O)N[C@@H](CCC(=O)O)C(=O)N[C@@H](CC(C)C)C(=O)N[C@@H](CC(C)C)C(=O)N[C@@H](CCC(=O)O)C(=O)N[C@@H](CO)C(=O)N[C@@H](CO)C(=O)N[C@@H](CC(=O)O)C(=O)N[C@@H](CCC(N)=O)C(=O)N[C@H](C(=O)N[C@@H](CC(C)C)C(=O)N[C@@H](CCCNC(=N)N)C(=O)N[C@@H](CSCC(=O)NCCOCCOCCOCCOCCC(=O)O[C@H]1CC[C@@]2(C)C(=CC[C@H]3[C@@H]4CC[C@H]([C@H](C)CCCC(C)C)[C@@]4(C)CC[C@@H]32)C1)C(=O)O)[C@@H](C)CC [FIP-HRC450-485-peg4-chol (no GSGSG)] | 278 ± 26.6 nM | 825 ± 229 nM | – | – | – | – |
| CC[C@H](C)[C@H](NC(=O)[C@H](C)NC(=O)[C@H](CC(N)=O)NC(=O)CNC(=O)[C@H](CC(C)C)NC(=O)[C@H](CC(N)=O)NC(=O)[C@@H](NC(=O)CNC(=O)[C@@H](NC(=O)[C@H](CC(=O)O)NC(=O)[C@H](CC(C)C)NC(=O)[C@H](CCCNC(=N)N)NC(=O)[C@H](CCC(=O)O)NC(=O)[C@H](CC(C)C)NC(=O)[C@H](CO)NC(=O)[C@@H](NC(=O)[C@@H]1CCCN1C(=O)[C@@H]1CCCN1C(=O)CNC(=O)[C@H](CO)NC(=O)CNC(=O)[C@H](CO)NC(=O)CNC(=O)CNC(=O)[C@H](Cc1ccccc1)NC(=O)[C@@H](Cc1ccccc1)NC(=O)OCc1ccccc1)[C@@H](C)CC)C(C)C)[C@@H](C)O)C(=O)N[C@@H](C)C(=O)N[C@@H](CCCCN)C(=O)N[C@@H](CC(C)C)C(=O)N[C@@H](CCC(=O)O)C(=O)N[C@@H](CC(=O)O)C(=O)N[C@@H](C)C(=O)N[C@@H](CCCCN)C(=O)N[C@@H](CCC(=O)O)C(=O)N[C@@H](CC(C)C)C(=O)N[C@@H](CC(C)C)C(=O)N[C@@H](CCC(=O)O)C(=O)N[C@@H](CO)C(=O)N[C@@H](CO)C(=O)N[C@@H](CC(=O)O)C(=O)N[C@@H](CCC(N)=O)C(=O)N[C@H](C(=O)N[C@@H](CC(C)C)C(=O)N[C@@H](CCCNC(=N)N)C(=O)N[C@@H](CSCC(=O)O[C@H]1CC[C@@]2(C)C(=CC[C@H]3[C@@H]4CC[C@H]([C@H](C)CCCC(C)C)[C@@]4(C)CC[C@@H]32)C1)C(=O)O)[C@@H](C)CC [FIP-HRC450-485-chol (no GSGSG)] | 389 ± 22.1 nM | 540 ± 338 nM | 70.8 ± 65.3 nM | – | – | 85.9 ± 56.3 nM |
| CC[C@H](C)[C@H](NC(=O)[C@H](C)NC(=O)[C@H](CC(N)=O)NC(=O)CNC(=O)[C@H](CC(C)C)NC(=O)[C@H](CC(N)=O)NC(=O)[C@@H](NC(=O)CNC(=O)[C@@H](NC(=O)[C@H](CC(=O)O)NC(=O)[C@H](CC(C)C)NC(=O)[C@H](CCCNC(=N)N)NC(=O)[C@H](CCC(=O)O)NC(=O)[C@H](CC(C)C)NC(=O)[C@H](CO)NC(=O)[C@@H](NC(=O)[C@@H]1CCCN1C(=O)[C@@H]1CCCN1C(C)=O)[C@@H](C)CC)C(C)C)[C@@H](C)O)C(=O)N[C@@H](C)C(=O)N[C@@H](CCCCN)C(=O)N[C@@H](CC(C)C)C(=O)N[C@@H](CCC(=O)O)C(=O)N[C@@H](CC(=O)O)C(=O)N[C@@H](C)C(=O)N[C@@H](CCCCN)C(=O)N[C@@H](CCC(=O)O)C(=O)N[C@@H](CC(C)C)C(=O)N[C@@H](CC(C)C)C(=O)N[C@@H](CCC(=O)O)C(=O)N[C@@H](CO)C(=O)N[C@@H](CO)C(=O)N[C@@H](CC(=O)O)C(=O)N[C@@H](CCC(N)=O)C(=O)N[C@H](C(=O)N[C@@H](CC(C)C)C(=O)N[C@@H](CCCNC(=N)N)C(=O)NCC(=O)N[C@@H](CO)C(=O)NCC(=O)N[C@@H](CO)C(=O)NCC(=O)N[C@@H](CSCC(=O)O[C@H]1CC[C@@]2(C)C(=CC[C@H]3[C@@H]4CC[C@H]([C@H](C)CCCC(C)C)[C@@]4(C)CC[C@@H]32)C1)C(=O)O)[C@@H](C)CC [HRC450-485-chol] | – | > 1000 nM | – | > 7000 nM | 103 ± 10.2 nM | – |
